Assay: Fe^3+ complexation: stability constants (log β) and sequestering ability (pL0.5) by spectrophotometric titration
Conditions: solvent MeOH/H2O (80/20 w/w)

Row | log β FeL2H2 (Fe^3+ complex) | log β FeLH (Fe^3+ complex) | log β FeL (Fe^3+ complex) | log β FeL2 (Fe^3+ complex) | log β FeL3 (Fe^3+ complex) | pL0.5 (towards Fe^3+ at pH 7.4, [Fe^3+] = 10^−9 M) | Structure (SMILES)
1 | 46.3(1) | 26.7(1) |  |  |  |  | Cc1nc(Cc2ccc(O)cc2)c(=O)n(O)c1C [Ligand 6d, 1-Hydroxy-3-(4-hydroxybenzyl)-5,6-dimethylpyrazin-2(1H)-one]
2 |  |  | 9.79(2) | 17.89(2) | 21.7(1) |  | O=c1cncc(-c2ccccc2)n1O [Ligand 10a, 1-Hydroxy-6-phenylpyrazin-2(1H)-one]
3 |  |  | 12.9(1) | 21.9(1) | 27.8(1) | 5.98 | Cc1nc(Cc2ccccc2)c(=O)n(O)c1C [Ligand 6c, 1-Hydroxy-3-benzyl-5,6-dimethylpyrazin-2(1H)-one]

— publication PMC8886574, “Synthesis, physicochemical characterization and neuroprotective evaluation of novel 1-hydroxypyrazin-2(1H)-one iron chelators in an in vitro cell model of Parkinson's disease” (Dalton Transactions (Cambridge, England : 2003), 2022)
